Measured values from patent US8669361B2, “Pyrazol-4-yl-heterocyclyl-carboxamide compounds and methods of use” (Genentech, Inc., priority 2010, dated 2014).

By UniProt entry, the sequences of proteins in these tests, tags left out. Where a name states a change or a piece, a line headed by the entry shows the natural chain unless it says otherwise.
UniProt P11309, whole entry: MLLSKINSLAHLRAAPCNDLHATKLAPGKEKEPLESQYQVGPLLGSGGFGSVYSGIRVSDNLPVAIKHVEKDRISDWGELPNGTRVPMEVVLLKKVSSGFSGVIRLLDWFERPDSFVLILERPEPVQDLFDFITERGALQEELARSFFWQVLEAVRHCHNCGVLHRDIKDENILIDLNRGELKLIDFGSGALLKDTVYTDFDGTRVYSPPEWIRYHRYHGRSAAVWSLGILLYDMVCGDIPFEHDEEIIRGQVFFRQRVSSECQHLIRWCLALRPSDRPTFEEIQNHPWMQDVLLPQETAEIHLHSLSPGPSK
UniProt Q9P1W9: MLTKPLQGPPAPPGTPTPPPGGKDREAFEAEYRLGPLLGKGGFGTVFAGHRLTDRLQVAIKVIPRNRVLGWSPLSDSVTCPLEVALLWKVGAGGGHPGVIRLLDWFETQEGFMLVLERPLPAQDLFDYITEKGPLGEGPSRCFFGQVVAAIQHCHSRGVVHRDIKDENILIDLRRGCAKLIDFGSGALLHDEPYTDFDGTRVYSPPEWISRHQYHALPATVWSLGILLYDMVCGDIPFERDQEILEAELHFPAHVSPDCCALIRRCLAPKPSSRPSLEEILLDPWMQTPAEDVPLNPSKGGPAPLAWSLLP

Tests used:
PIM1 = PIM1 (Homo sapiens (Human), UniProt P11309); experiment: Pim kinase binding activity, Caliper LC3000 microfluidic peptide phosphorylation assay (Example 901); assay type: biochemical; details: 20 pM PIM1, 1 μM FAM-peptide, 10 μM ATP, 90 minutes at room temperature; read-out: PIM1 LC3K (KI)
Procedure: (§1) PIM-1, -2, and -3 enzymes were generated as fusion proteins expressed in bacteria and purified by IMAC column chromatography (Sun, X., Chiu, J. F., and He, Q. Y. (2005) Expert Rev. Proteomics, 2:649-657). A fluorescent-labeled Pim-specific peptide substrate, was custom synthesized by American Peptide Company (Sunnyvale, Calif.). Reaction Buffer contained 10 mM HEPES, pH 7.2, 10 mM MgCl2, 0.01% Tween 20, 2 mM DTT. Termination Buffer contained 190 mM HEPES, pH 7.2, 0.015% Brij-35, 0.2% Coating Reagent 3 (Caliper Life Sciences, Hopkinton, Mass.), 20 mM EDTA. Separation Buffer contained 100 mM HEPES, pH 7.2, 0.015% Brij-35, 0.1% Coating Reagent 3, 1:200 Coating Reagent 8 (Caliper Life Sciences, Hopkinton, Mass.), 10 mM EDTA and 5% DMSO.
PIM reactions were carried out in a final volume of 10 μL per well in a 384-well plate. A standard enzymatic reaction, initiated by the addition of 5 μL 2×ATP and test compound to 5 μL of 2× enzyme and FAM-peptide, contained 20 pM PIM1, 50 pM PIM2, or 55 pM PIM3, 1 μM FAM-peptide, and 10 μM ATP, in Reaction Buffer. […] The product and substrate fluorophore were excited at 488 nm and detected at 530 nm. Substrate conversion was calculated from the electropherogram using HTS Well Analyzer software (Caliper Life Sciences, Hopkinton, Mass.). Ki values for the test compound were calculated.

PIM2 = PIM2 (Homo sapiens (Human), UniProt Q9P1W9); experiment: as above; assay type: biochemical; details: 50 pM PIM2, 1 μM FAM-peptide, 10 μM ATP, 90 minutes at room temperature; read-out: PIM2 LC3K (KI)
Procedure: as §1, with “A” for “PIM-1, -2, and -3 enzymes were generated as fusion proteins expressed in bacteria and purified by IMAC column chromatography (Sun, X., Chiu, J. F., and He, Q. Y. (2005) Expert Rev. Proteomics, 2:649-657). A”
PIM reactions were carried out in a final volume of 10 μL per well in a 384-well plate. […] After 90 minutes of incubation at room temperature, the phosphorylation reaction was stopped by the addition of 10 μL Termination Buffer. The product and substrate in each independent reaction were separated on a 12-sipper microfluidic chip (Caliper Life Sciences, Hopkinton, Mass.) run on a Caliper LC3000® (Caliper Life Sciences, Hopkinton, Mass.). The separation of product and substrate was optimized by choosing voltages and pressure using Caliper's Optimizer software (Hopkinton, Mass.). […] Substrate conversion was calculated from the electropherogram using HTS Well Analyzer software (Caliper Life Sciences, Hopkinton, Mass.). Ki values for the test compound were calculated.

| Ki (PIM1) [nM] | Ki (PIM2) [nM] | Structure (SMILES) |
| --- | --- | --- |
| 0.274 | – | Cn1ncc(NC(=O)c2nc(-c3ccccc3F)cnc2N)c1N1CCC[C@H](N)C1 [Example 119, (S)-3-amino-N-(5-(3-aminopiperidin-1-yl)-1-methyl-1H-pyrazol-4-yl)-6-(2-fluorophenyl)pyrazine-2-carboxamide] |
| – | 28.3 | Cn1ncc(NC(=O)c2nc(-c3c(F)cccc3F)sc2N)c1OC1CCNCC1 [Example 120, 5-amino-2-(2,6-difluorophenyl)-N-(1-methyl-5-(piperidin-4-yloxy)-1H-pyrazol-4-yl)thiazole-4-carboxamide] |
| 1.92 | – | Cn1ncc(NC(=O)c2nc(-c3ccccc3F)ccc2N)c1N1CC[C@@H](N)C1 [Example 124, (R)-3-amino-N-(5-(3-aminopyrrolidin-1-yl)-1-methyl-1H-pyrazol-4-yl)-6-(2-fluorophenyl)picolinamide] |
